We go through one compound from ChEMBL document CHEMBL1141158, “New 5-hydroxytryptamine(1A) receptor ligands containing a norbornene nucleus: synthesis and in vitro pharmacological evaluation” (J Med Chem, 2005).

Chains of the proteins cited; added tags and fusions are not shown.
UniProt P19327, whole entry: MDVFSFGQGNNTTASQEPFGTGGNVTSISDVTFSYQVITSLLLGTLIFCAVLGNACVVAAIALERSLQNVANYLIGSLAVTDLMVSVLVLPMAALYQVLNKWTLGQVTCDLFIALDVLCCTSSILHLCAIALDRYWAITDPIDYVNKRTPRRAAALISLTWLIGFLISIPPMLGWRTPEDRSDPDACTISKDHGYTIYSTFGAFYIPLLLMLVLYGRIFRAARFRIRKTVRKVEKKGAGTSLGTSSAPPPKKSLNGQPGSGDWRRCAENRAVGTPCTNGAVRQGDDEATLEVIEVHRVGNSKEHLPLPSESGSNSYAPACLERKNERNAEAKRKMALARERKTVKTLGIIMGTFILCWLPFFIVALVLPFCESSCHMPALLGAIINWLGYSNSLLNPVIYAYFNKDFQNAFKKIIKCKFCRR

As usually defined, the Ki is the dissociation constant of the complex between target and ligand, obtained from inhibition or displacement.

This assay has as its target 5-hydroxytryptamine receptor 1A (Rattus norvegicus, UniProt P19327). The assay is described as follows: Inhibition of [3H]8-OH-DPAT binding to Serotonin 5-HT1A receptor from rat brain cortex.

The compound `O=C1C2C3C=CC(C3)C2C(=O)N1OCCN1CCN(c2ccccc2Cl)CC1` (stereo unspecified) returned a Ki of 7.12 nM.
